Values of other authors as cited in patent US10588879B2, “Treatment of age-related macular degeneration” (Aurin Biotech Inc., priority 2011, dated 2020).

System: paroxysmal nocturnal hemoglobinemia
Settings: paroxysmal nocturnal hemoglobinemia patients; cited from earlier work

B1: eculizumab: humanized monoclonal antibody which blocks C5 conversion of the alternative pathway (antibody, chains of the INN, looked up)
heavy: QVQLVQSGAEVKKPGASVKVSCKASGYIFSNYWIQWVRQAPGQGLEWMGEILPGSGSTEYTENFKDRVTMTRDTSTSTVYMELSSLRSEDTAVYYCARYFFGSSPNWYFDVWGQGTLVTVSSASTKGPSVFPLAPCSRSTSESTAALGCLVKDYFPEPVTVSWNSGALTSGVHTFPAVLQSSGLYSLSSVVTVPSSNFGTQTYTCNVDHKPSNTKVDKTVERKCCVECPPCPAPPVAGPSVFLFPPKPKDTLMISRTPEVTCVVVDVSQEDPEVQFNWYVDGVEVHNAKTKPREEQFNSTYRVVSVLTVLHQDWLNGKEYKCKVSNKGLPSSIEKTISKAKGQPREPQVYTLPPSQEEMTKNQVSLTCLVKGFYPSDIAVEWESNGQPENNYKTTPPVLDSDGSFFLYSRLTVDKSRWQEGNVFSCSVMHEALHNHYTQKSLSLSLG
light: DIQMTQSPSSLSASVGDRVTITCGASENIYGALNWYQQKPGKAPKLLIYGATNLADGVPSRFSGSGSGTDFTLTISSLQPEDFATYYCQNVLNTPLTFGQGTKVEIKRTVAAPSVFIFPPSDEQLKSGTASVVCLLNNFYPREAKVQWKVDNALQSGNSQESVTEQDSKDSTYSLSSTLTLSKADYEKHKVYACEVTHQGLSSPVTKSFNRGEC
Q: For B1, which “cases in which treatment is effective” value is on record?
A: Its value is 49%.
